Data reported in ChEMBL document CHEMBL1151798, “Monoacylglycerol lipase regulates 2-arachidonoylglycerol action and arachidonic acid levels” (Bioorg Med Chem Lett, 2008).

Amino acid sequences for entries named in this document (tags omitted).
UniProt O08914, whole entry: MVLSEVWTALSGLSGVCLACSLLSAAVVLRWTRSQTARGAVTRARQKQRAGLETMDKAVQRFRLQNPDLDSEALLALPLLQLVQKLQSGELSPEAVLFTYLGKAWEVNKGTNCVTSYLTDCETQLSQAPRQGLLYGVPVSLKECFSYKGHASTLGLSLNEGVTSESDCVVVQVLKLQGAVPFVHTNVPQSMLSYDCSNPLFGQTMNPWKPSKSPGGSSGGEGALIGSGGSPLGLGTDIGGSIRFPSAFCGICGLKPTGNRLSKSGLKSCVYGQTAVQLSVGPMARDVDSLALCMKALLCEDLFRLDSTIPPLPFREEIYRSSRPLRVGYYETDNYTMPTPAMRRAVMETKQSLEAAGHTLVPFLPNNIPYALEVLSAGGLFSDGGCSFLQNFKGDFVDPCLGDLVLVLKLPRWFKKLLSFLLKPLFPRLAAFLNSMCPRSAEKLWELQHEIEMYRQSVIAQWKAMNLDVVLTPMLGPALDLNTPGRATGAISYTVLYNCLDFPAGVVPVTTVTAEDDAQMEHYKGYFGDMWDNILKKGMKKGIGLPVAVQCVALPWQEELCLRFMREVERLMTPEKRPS

Biological target: Fatty-acid amide hydrolase 1 (Mus musculus, UniProt O08914)
Test: Inhibition of FAAH-mediated [3H]anandamide hydrolysis in mouse brain
Format: tissue-based

CCOP(=O)(OCC)Oc1nc(Cl)c(Cl)cc1Cl [CHLORPHRIFOS OXON] showed an IC50 of 40 nM.
